Reference: patent publication US20140234420A1, “Method of Treating Skin Disorders using Nanoscale Delivery Devices and Transdermal Enhancing Compositions” (priority 2008, published 2014)

Tests used:
[1] = Size, polydispersity index and zeta potential determination (Malvern Zetasizer); type: physicochemical; details: compound encapsulated in zein core-shell particles
Experimental: Nanoparticles (2 mg) and micelles (2 mg) were dispersed in 2 ml of purified water and bath sonicated for 1 min. They were then centrifuged at 10000 rpm for 5 min and diluted 50 times with distilled water. About 50 μl of the nanoemulsion was taken and dilated to 1 mL using distilled water. A liposome dispersion was diluted 100 times using purified water and probe sonicated for 1 min using 20% amplitude. The sizes, polydispersity indexes, and zeta potentials, were measured with a Malvern Zetasizer.
Nanoparticles (2 mg) were dispersed in 1 ml of purified water and probe sonicated for 1 min using 20% amplitude. Subsequently, the sonicated particles were diluted 10 times with distilled water and properties were measured using a Malvern Zetasizer.
Size, polydispersity index and zeta potential determination: nanoparticles (50 μl), nanoemulsions (squalene) (50 μl) and nanomicelles (2 mg) were dispersed in 2 ml of purified water separately, vortex for 1 min. Further, the size, polydispersity index and zeta potential were measured with a Malvern Zetasizer.

[2] = Encapsulation (entrapment) efficiency; type: physicochemical; details: compound encapsulated in zein core-shell particles
Experimental: Detection wavelength: 340 nm; Injection volume: 50 μl: Run time: 10 min. […] The resulting solution was centrifuged at 5000 rpm for 5 min. […] The resulting solution was centrifuged 5000 rpm for 5 min. […] Further the size was much more uniform in case of nanoemulsions as evidenced from the low polydispersity index (PDI). The zeta potential was high in case of nanoemulsions signifying the high physical stability of these nanocarriers. […] In vitro release of MTX from the formulations in phosphate buffer (pH 7.4) was studied using UV-spectrophotometry. […] Benzoyl peroxide content was measured using HPLC.

**Q.** For Dextran FITC, which “Particle Size” value [1] is on record?
**A.** 89 ± 12 nm

**Q.** And the “Encapsulation Efficiency” value [2]?
**A.** 79 ± 8%
